Values quoted from earlier work in PubChem BioAssay AID493017.

Experiments:
Test in all cases: PubChem AID 493017
DRD2 = conditions: WOMBAT literature affinities, multiple human targets, D2, gene DRD2, NCBI gene 1813; for Ki: binding affinity Ki
ADORA1 = conditions: WOMBAT literature affinities, multiple human targets, A1, gene ADORA1, NCBI gene 134; for Ki: binding affinity Ki
ALOX5 = conditions: WOMBAT literature affinities, multiple human targets; 5-LOX; gene ALOX5; NCBI gene 240
F2 = conditions: WOMBAT literature affinities, multiple human targets, thrombin, gene F2, NCBI gene 2147; for Ki: binding affinity Ki
PTGS2 = conditions: WOMBAT literature affinities, multiple human targets; COX-2; gene PTGS2; NCBI gene 5743
CACNA1C = conditions: WOMBAT literature affinities, multiple human targets, Ca(2+) channel, gene CACNA1C, NCBI gene 775; for Ki: binding affinity Ki
MMP1 = conditions: WOMBAT literature affinities, multiple human targets; MMP-1; gene MMP1; NCBI gene 4312
SIGMAR1 = conditions: WOMBAT literature affinities, multiple human targets; binding affinity Ki; sigma; gene SIGMAR1; NCBI gene 10280
DHFR = conditions: WOMBAT literature affinities, multiple human targets, DHFR, gene DHFR, NCBI gene 1719; for Ki: binding affinity Ki
OPRM1 = conditions: WOMBAT literature affinities, multiple human targets; binding affinity Ki; mu; gene OPRM1; NCBI gene 4988
NK1 = conditions: WOMBAT literature affinities, multiple human targets, NK1, gene NK1, NCBI gene 6869
F10 = conditions: WOMBAT literature affinities, multiple human targets, fXa, gene F10, NCBI gene 2159
CHRNA = conditions: WOMBAT literature affinities, multiple human targets; binding affinity Ki; nAChR; gene CHRNA; NCBI gene 1134
AR = conditions: WOMBAT literature affinities, multiple human targets, AR, gene AR, NCBI gene 367; for Ki: binding affinity Ki
PARP1 = conditions: WOMBAT literature affinities, multiple human targets; PARP1; gene PARP1; NCBI gene 142
GABRA1 = conditions: WOMBAT literature affinities, multiple human targets, GABA-A, gene GABRA1, NCBI gene 2554
CCKAR = conditions: WOMBAT literature affinities, multiple human targets, CCK1, gene CCKAR, NCBI gene 886
ACHE = conditions: WOMBAT literature affinities, multiple human targets; AChE; gene ACHE; NCBI gene 43
EDNRA = conditions: WOMBAT literature affinities, multiple human targets; ET-A; gene EDNRA; NCBI gene 1909
KCNJ5 = conditions: WOMBAT literature affinities, multiple human targets; K(+) channel; gene KCNJ5; NCBI gene 3762
[1] = molecular target: WOMBAT literature affinities, multiple human targets; conditions: binding affinity Ki; HIV-1 P; gene HIV-1 protease
GRIN1 = conditions: WOMBAT literature affinities, multiple human targets; binding affinity Ki; NMDA; gene GRIN1; NCBI gene 2902
FNTA = conditions: WOMBAT literature affinities, multiple human targets; FTase; gene FNTA; NCBI gene 2339
TRPV1 = conditions: WOMBAT literature affinities, multiple human targets; binding affinity Ki; VR1; gene TRPV1; NCBI gene 7442
SLC6A3 = conditions: WOMBAT literature affinities, multiple human targets; DAT; gene SLC6A3; NCBI gene 6531
PLAU = conditions: WOMBAT literature affinities, multiple human targets; uPA; gene PLAU; NCBI gene 5328
CNR1 = conditions: WOMBAT literature affinities, multiple human targets; binding affinity Ki; CB1; gene CNR1; NCBI gene 1268

SMILES: Cc1ccc(N2CCN(Cc3ccc4ccc(=O)oc4c3)CC2)cc1
- Ki (DRD2): 5700 nM

SMILES: O=c1cc(-c2ccccc2)[nH]c2nc(Br)ccc12
- Ki (ADORA1): 0.7 nM

SMILES: COC(C)(c1nccs1)c1cccc(OCc2ccc3ccccc3c2)c1C (stereo not drawn)
- IC50 (ALOX5): 30 nM

SMILES: Cc1cc(OCC2CCN(C(=N)N)CC2)cc(OS(=O)(=O)c2ccccc2Cl)c1
- Ki (F2): 4.6 nM

SMILES: COC(=O)c1cc2cc(S(C)(=O)=O)ccc2n1Cc1ccc(Br)cc1
- IC50 (PTGS2): 3930 nM

SMILES: NC(C(=O)O)c1ccc(F)cc1F (stereo not drawn)
- Ki (CACNA1C): 3500 nM

SMILES: O=C(O)CS(=O)(=O)c1ccc(-c2ccccc2)cc1
- IC50 (MMP1): 380000 nM

SMILES: C=CCN1CC[C@]2(C)c3cc(O)ccc3CC1C2C (stereo partly drawn)
- Ki (SIGMAR1): 59.7 nM

SMILES: CN(CCc1ccc(Cl)c(Cl)c1)C1CCCCC1N1CCCC1 (stereo not drawn)
- Ki (SIGMAR1): 64.9 nM

SMILES: COc1ccc(Cc2cnc(N)nc2N)cc1
- Ki (DHFR): 51300 nM

SMILES: Oc1ccc2c(c1)[C@]13CCCCC1C(C2)N(CC1CCC1)CC3 (stereo partly drawn)
- Ki (OPRM1): 60 nM

SMILES: O=C(CCCN1CCC(c2ccc(Cl)cc2)CC1)c1ccc(F)cc1
- Ki (DRD2): 15.5 nM

SMILES: CON=C(CN(C)C(=O)c1ccccc1OC)C(CCN1CCC(O)(c2ccccc2)CC1)c1ccc(Cl)c(Cl)c1 (stereo not drawn)
- Ki (NK1; binding affinity Ki): 58000 nM

SMILES: COc1ccc(NC(=O)c2cc(NS(C)(=O)=O)ccc2NC(=O)c2ccc(N(C)C)cc2)cc1
- Kd (F10; binding affinity Kd): 20 nM

SMILES: NCCCCCOCC1OC(OCCc2c[nH]c3ccccc23)C(OCc2ccccc2)C(OCc2ccccc2)C1OCc1ccccc1 (stereo not drawn)
- IC50 (NK1): 120 nM

SMILES: COc1ccc(-c2ncc(CN(C)Cc3ccccc3)[nH]2)cc1
- Ki (DRD2): 3470 nM

SMILES: O=C(O)c1n[nH]c2c1CCCC2
- Ki (CHRNA): 3540 nM

SMILES: C[C@](O)(CS(=O)(=O)c1ccc(NC(=O)CCl)cc1)C(=O)Nc1ccc(C#N)c(C(F)(F)F)c1
- Ki (AR): 10.7 nM

SMILES: Cc1ccc(CS(=O)(=O)Nc2ccc(C)n(CC(=O)NC3CCc4nc(N)sc4C3)c2=O)cc1 (stereo not drawn)
- Ki (F2): 100 nM

SMILES: C[C@@]1(O)C(O)C(CO)OC1n1cnc2c(N)ncnc21 (stereo partly drawn)
- Ki (ADORA1): 740 nM

SMILES: Nc1cccc2c1CC=NC2=O
- IC50 (PARP1): 3550 nM

SMILES: CC[C@](OC)(C(=O)OC)c1cc(F)cc(OCc2ccc3ccccc3c2)c1
- IC50 (ALOX5): 124 nM

SMILES: CCOC(=O)c1cc2c(cn1)[nH]c1ccccc12
- IC50 (GABRA1): 5 nM

SMILES: CSCCC(NC(=O)C(Cc1c[nH]c2ccccc12)NC(=O)OC(C)(C)C)C(=O)NC(CC(=O)O)C(=O)NC(Cc1ccccc1)C(N)=O (stereo not drawn)
- IC50 (CCKAR): 1800 nM

SMILES: C[C@@](O)(CSc1ccc(N)cc1)C(=O)Nc1ccc(C#N)c(C(F)(F)F)c1
- Ki (AR): 794 nM

SMILES: NCc1ccc(Cl)cc1CNC(=O)C1CCCN1C(=O)C1(O)c2ccccc2-c2ccccc21 (stereo not drawn)
- Ki (F2): 0.5 nM

SMILES: Nc1nc(NCCc2ccccc2)nc2c1ncn2C1OC(CO)C(O)C1O (stereo not drawn)
- IC50 (ADORA1): 980 nM

SMILES: CC=C(C)C(=O)NC1CC[C@@]2(C)C(=CCC3C4=CCC(C(C)N(C)C)[C@@]4(C)CCC32)C1=O (stereo partly drawn)
- IC50 (ACHE): 5800 nM

SMILES: CCC(C)C(NC(=O)C(Cc1ccccc1)NC(C)=O)C(=O)NC(Cc1c[nH]c2ccccc12)C(=O)O (stereo not drawn)
- IC50 (EDNRA): 8000 nM

SMILES: CN(CCCC(=O)c1ccc(F)cc1)CCCC(O)c1ccc(Cl)cc1 (stereo not drawn)
- Ki (DRD2): 26.3 nM

SMILES: CN(C1c2cc(OCCCC(F)(F)F)ccc2OC(C)(C)C1O)S(C)(=O)=O (stereo not drawn)
- IC50 (KCNJ5): 12600 nM

SMILES: CN1CC[C@]2(c3cccc(O)c3)CC(=O)C(=Cc3ccc(Cl)c(Cl)c3)C1C2
- Ki (SIGMAR1): 3200 nM

SMILES: COc1ccc(S(=O)(=O)N(CC(C)C)CC(O)C(Cc2ccccc2)NC(=O)OC2COC3OCCC23)cc1 (stereo not drawn)
- Ki [1]: 14000 nM

SMILES: COc1cc(Cc2cnc(N)nc2N)ccc1OCc1ccccc1
- Ki (DHFR): 29.5 nM

SMILES: O=c1[nH]n(Cc2cccnc2)c(=O)c2c(=O)c3ccc(Cl)cc3[nH]c12
- Ki (GRIN1): 100 nM

SMILES: Nc1nc(Cl)nc2c1ncn2C1OC(CO)C(O)C1O (stereo not drawn)
- Ki (ADORA1): 6.7 nM

SMILES: CC1(c2cccc3ccccc23)C(=O)N(CCCn2ccnc2)C(=O)N1Cc1ccc(CN)cc1 (stereo not drawn)
- IC50 (FNTA): 2100 nM

SMILES: Oc1cc2c(cc1O)CN(C(=S)NCCc1ccc(Cl)cc1)CCC2
- Ki (TRPV1): 1300 nM

SMILES: CC(=C(F)C(=O)Nc1ccc(-c2ccccc2S(N)(=O)=O)cc1)c1cccc(C(=N)N)c1
- IC50 (F10): 1 nM

SMILES: C[C@]1(C(=O)NC(CCC(=O)O)C(=O)O)CCCN1C(=O)CN (stereo partly drawn)
- Ki (GRIN1): 7960 nM

SMILES: CN1CC[C@@]2(C)c3cc(OC(=O)Nc4ccccc4)ccc3N(C)C12 (stereo partly drawn)
- IC50 (ACHE): 22 nM

SMILES: c1ccc(-c2ncc(CN3CCN(c4ncccn4)CC3)[nH]2)cc1
- Ki (DRD2): 2250 nM

SMILES: O=c1[nH]c2cc(CN3CC=C(c4ccccc4)CC3)ccc2c2ccccc12
- IC50 (PARP1): 16000 nM

SMILES: CCC(=O)OC1CCC2C3CCC4=CC(=O)CC[C@]4(C)C3CC[C@]12C (stereo partly drawn)
- IC50 (AR): 1910 nM

SMILES: c1ccc2c(c1)[nH]c1c2ccc2[nH]c3ccccc3c21
- IC50 (GABRA1): 1920 nM

SMILES: CN1CC[C@]23c4c5ccc(O)c4OC2c2c(c4c(n2C)CCCC4)C[C@@]3(O)C1C5 (stereo partly drawn)
- Ki (OPRM1): 25.2 nM

SMILES: CC(C)CC(NC(=O)C(Cc1ccccc1)NC(=O)CNC(=O)CNC(=O)C(N)Cc1ccc(O)cc1)C(N)=O (stereo not drawn)
- Ki (OPRM1): 25 nM

SMILES: COc1ccc(C2Cc3cc(OC)ccc3N(CCN(C)C)C(=O)C2OC(C)=O)cc1 (stereo not drawn)
- IC50 (CACNA1C): 1900 nM

SMILES: CSCCC(NC(=O)C(N)Cc1c[nH]c2ccccc12)C(=O)NC(CC(=O)O)C(=O)NC(Cc1ccccc1)C(N)=O (stereo not drawn)
- Kd (CCKAR; binding affinity Kd): 3.2 nM

SMILES: CCCCC1(Cc2ccccc2)CC(O)=C(C(CC)c2ccccc2)C(=O)O1 (stereo not drawn)
- Ki [1]: 3000 nM

SMILES: O=c1[nH]c2ccccc2c2ccccc12
- IC50 (PARP1): 340 nM

SMILES: Cc1cc(F)ccc1COc1ccc(S(=O)(=O)N2CCCC(C)(O)C2C(=O)NO)cc1 (stereo not drawn)
- IC50 (MMP1): 10 nM

SMILES: O=c1cc(-c2ccccc2)oc2cccc(O)c12
- Ki (ADORA1): 2190 nM

SMILES: NC(CCSCc1ccccc1[N+](=O)[O-])C(=O)O (stereo not drawn)
- Ki (CACNA1C): 1300 nM

SMILES: CCC(C)N(C)C(=O)c1cc2ccccc2c(-c2ccccc2Cl)n1 (stereo not drawn)
- Ki (GABRA1; binding affinity Ki): 7590 nM

SMILES: COc1cc(Cc2cnc(N)nc2N)ccc1O
- Ki (DHFR): 28.8 nM

SMILES: CNC(=O)Oc1cccc(CN(C)CCCOc2ccc3c(=O)c4ccccc4oc3c2)c1
- IC50 (ACHE): 0.3 nM

SMILES: N#Cc1ccc(N2C(=O)C3C(O)CCN3C2=O)cc1 (stereo not drawn)
- Ki (AR): 3.2 nM

SMILES: COC(=O)C1C(c2ccc(Cl)cc2)CC2CCC1N2C (stereo not drawn)
- IC50 (SLC6A3): 1.12 nM

SMILES: CN1C(=O)C(NC(=O)c2ccc(Cl)cc2)N=C(c2ccccc2)c2ccccc21 (stereo not drawn)
- IC50 (CCKAR): 8.32 nM

SMILES: CCOC(=O)c1c(C)nc2nc3c(c(N)c2c1-c1ccc(OC)c(OC)c1)CCCC3
- IC50 (ACHE): 1300 nM

SMILES: N=C(N)c1ccc(CNC(=O)C2CCC3CC[C@@](O)(Cc4ccccc4)C(=O)N32)cc1 (stereo partly drawn)
- IC50 (F2): 20 nM

SMILES: N=C(N)c1cc2c(C=Cc3ccc4c(c3)OCO4)cccc2s1
- IC50 (PLAU): 70 nM

SMILES: CNC(CCOc1ccc([N+](=O)[O-])cc1)c1ccc(OC(=O)N(C)C)cc1 (stereo not drawn)
- IC50 (ACHE): 143 nM

SMILES: CCN1CCN=C1Cc1cccnc1
- Ki (CHRNA): 150 nM

SMILES: CCCCCn1cc(C(=O)c2cccc3ccccc23)c2ccccc21
- Ki (CNR1): 9 nM

SMILES: CN1CCCC(c2cccc(O)c2)C1 (stereo not drawn)
- IC50 (DRD2): 1950 nM

SMILES: Nc1nc(N)c2nc(CN3c4ccccc4C=Cc4ccccc43)cnc2n1
- IC50 (DHFR): 210 nM
